The results in this text go back to PubChem BioAssay AID2549 (National Center for Advancing Translational Sciences (NCATS), 2010).

Sequences of proteins named here, by UniProt entry; tags and fusion partners are left off.
UniProt P46063, whole entry: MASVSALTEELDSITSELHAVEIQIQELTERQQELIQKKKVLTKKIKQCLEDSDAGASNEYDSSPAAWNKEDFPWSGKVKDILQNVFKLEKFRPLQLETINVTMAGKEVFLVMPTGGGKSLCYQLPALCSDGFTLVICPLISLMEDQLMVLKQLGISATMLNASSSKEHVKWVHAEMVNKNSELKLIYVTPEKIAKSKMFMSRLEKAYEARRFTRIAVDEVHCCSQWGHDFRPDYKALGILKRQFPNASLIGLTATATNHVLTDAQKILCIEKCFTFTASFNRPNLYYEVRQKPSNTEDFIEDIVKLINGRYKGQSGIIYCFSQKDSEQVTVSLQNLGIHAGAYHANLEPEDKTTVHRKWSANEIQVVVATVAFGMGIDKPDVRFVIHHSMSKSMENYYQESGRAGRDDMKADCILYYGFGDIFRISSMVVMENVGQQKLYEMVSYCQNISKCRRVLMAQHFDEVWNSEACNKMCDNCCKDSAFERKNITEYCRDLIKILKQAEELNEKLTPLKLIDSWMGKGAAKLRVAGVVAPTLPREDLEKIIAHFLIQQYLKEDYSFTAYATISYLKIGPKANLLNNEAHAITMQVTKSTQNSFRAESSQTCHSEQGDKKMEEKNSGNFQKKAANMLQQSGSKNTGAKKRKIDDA

Structures are written as SMILES. The list shows a part of the results, in another mix than the full data. The source made the active and inactive calls. Calls come from the whole dose curve; as a rule, active = well fitted inhibition curve with a large enough effect; inconclusive = small, poorly fitted or top-dose-only effect; inactive = flat fitted curve, though single readings scatter.

This test has as its target ATP-dependent DNA helicase Q1 (Homo sapiens) (UniProt P46063). Description: qHTS Assay for Inhibitors of RecQ-Like Dna Helicase 1 (RECQ1).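 For activity, negative = inhibition: plate controls were vehicle for no effect and no enzyme for full effect.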 Note: nearly all actives have a fitted effect of over 30% in size. The conditions noted are these: RECQ1 DNA unwinding, red fluorescence kinetic read; activity, negative = inhibition: at 57.3 µM (top of the series). An excerpt:
Survival of cells and the faithful propagation of the genome depend on elaborate mechanisms of detecting and repairing DNA damage. Treatment of advanced cancer relies on radiation therapy or chemotherapy, which kill cancer cells by causing extensive DNA damage. It is often found, that cancer cells develop resistance to therapy through enhanced activity of DNA repair functions; this has led to an increased interest in developing drugs that interfere with DNA repair, which could sensitize cancer cells to conventional therapy.
This validation qHTS assay pertains to human RECQ1, which is important in resolving abnormal DNA structures formed during replication or homologous recombination. Shutting down the expression of RECQ1 leads to chromosomal instability and higher radiation sensitivity in cultured cells.
The validation assay was a fluorescence quenching based kinetic qHTS for RECQ1 Helicase DNA unwinding. The activity was measured as ATP-dependent separation of a 20-bp DNA duplex extended by 30-nt single-stranded tails (forked duplex). […] Strand separation results in an increase in the fluorescence of TAMRA (excitation 525 nm, emission 598 nm). […]
Three uL of reaction buffer (25 mM Tris-HCl (pH 8.0), 5 mM NaCl, 2 mM MgCl2, 1mM DTT, 0.01% Tween- 20, and 2.5 ug/ml poly(dI-dC), including enzyme (50 nM RECQ1T1), were dispensed into a 1536-well Greiner black assay plate via solenoid-valve based nanoliter dispensers. Compounds (23 nl each in columns 5-48) and control (23 nl each in column 2 as dose-response) were transferred via a Kalypsys pintool equipped with a 1536-pin array. The plates were incubated for 15 min at room temperature, and then 1 ul of substrates (200 nM DNA and 2 mM ATP, final concentrations) was added to start the reaction. The plate was transferred into a ViewLux high-throughput CCD imager where the reaction progress was measured in a discontinuous kinetic mode (two reads spaced 2 hours apart, with intermediate room temperature incubation of the covered assay plate) by using standard red-fluorescence optics (excitation filter 525 nm, emission filter 598 nm). […]
A general note: In qHTS, concentration-response curves come from the screen itself.
Take `O=[N+]([O-])C(Cl)(Cl)Cl`: the activity, negative = inhibition is inactive: -2.83%. In the case of `CN(CCCl)CCCl`, the activity, negative = inhibition is inactive: 6.36% and the outcome was inactive.
